## Binding of CDR-mutated scFvs to a peptide of the spike HR2 region

Target peptide (SARS-CoV-2 spike, HR2 region): PDVDLGDISGINAS

Parent: Ab-14, a human scFv built as VH, a 15-residue (Gly4Ser)3 linker, VL. Only the CDRs of the light chain vary.
VH: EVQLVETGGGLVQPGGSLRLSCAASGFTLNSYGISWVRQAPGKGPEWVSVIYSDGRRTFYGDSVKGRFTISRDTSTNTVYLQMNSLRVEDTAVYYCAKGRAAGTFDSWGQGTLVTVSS
VL: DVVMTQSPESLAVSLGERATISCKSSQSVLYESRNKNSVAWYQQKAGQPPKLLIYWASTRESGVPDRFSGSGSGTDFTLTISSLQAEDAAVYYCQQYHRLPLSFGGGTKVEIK

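The starting antibody came from a phage panning campaign against this peptide. Designed CDR sequences, proposed from the first random library and measured here. Group labels follow the data file (Ctrl: baseline library sampled from a position-specific scoring matrix, with some repeated check sequences; GP: Gaussian process model; HC: hill climbing; Gen: genetic algorithm; Gibbs: Gibbs sampling; a sequence that several methods proposed may carry one label only). The assay is AlphaSeq: two haploid yeast populations carry antibody and antigen on their surface. After mating in shaken culture at 30 °C for 16 h, diploids were selected and their barcode pairs sequenced. Scores were corrected for input abundance and mapped to Kd with protein pairs of known affinity run in the same pool. There are six technical replicates.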

Substitutions are numbered in sequence along the VL above, starting at 1 (not Kabat).
Variants here have at most six changes.
Each Kd is an estimate from the mating assay, the geometric mean of the replicates in which the pair was seen; lower is stronger.
"nd" marks a missing value. The strain was present, yet no cells mated with the target were sequenced in any replicate, which points to weak or no binding.
The parent sequence was in this pool as ten entries: three were never detected, three once, and four in most replicates, with averages from 2.2 nM to 240 nM.

The variant W56S+P101K [Ctrl] gave 8.8 nM (5 of 6 replicates; controls 0 of 18). The variant S25V+Q27W+L30G+E32G+W56E+S103Y [GP_Gibbs] gave 1.1 nM (6 of 6 replicates; controls 1 of 18). The variant S25Q+L30D+W56E [GP_Gen] showed 2.6 nM (6 of 6 replicates; controls 0 of 18). For Q27H+Y31D+R34S+W56D [Ctrl], the assay gave 2.0 nM (6 of 6 replicates; controls 1 of 18). The variant S25L+V29Q+W56N+E61F [GP_Gen] gave 800 pM (6 of 6 replicates; controls 0 of 18). The variant L30G+R34T+W56Q [Ctrl] showed 1.3 nM (6 of 6 replicates; controls 2 of 18). For S28I+Y31T+S38C+W56T+S62A [Ctrl], the assay gave 8.6 µM (1 of 6 replicates; controls 0 of 18). The variant S25L+S26M+W56E+E61M [GP_Gen] gave 8.0 nM (6 of 6 replicates; controls 0 of 18).

With S25V+S26P+W56N [GP_Gen] the result was 640 pM (6 of 6 replicates; controls 1 of 18). The variant S25L+S26W+V29E+W56N [GP_Gen] showed 400 pM (6 of 6 replicates; controls 0 of 18). With S25M+Y31M+S33G+K36D+W56E+S62D [GP_Gibbs] the result was 890 pM (6 of 6 replicates; controls 0 of 18). The variant S25F+L30W+W56N [GP_Gen] gave 680 pM (6 of 6 replicates; controls 1 of 18). For S25L+V29G+W56N [GP_Gen], the assay gave 540 pM (6 of 6 replicates; controls 3 of 18). For S25L+S26E+L30D+W56N+T59Q [GP_Gen], the assay gave 2.5 nM (6 of 6 replicates; controls 0 of 18). For S28T+N35R [Ctrl], the assay gave nd (0 of 6 replicates; controls 0 of 18). With S25L+V29F+W56D [GP_Gen] the result was 720 pM (6 of 6 replicates; controls 2 of 18).

For S25Q+S28E+Y31F+W56D+S62Q [GP_HC], the assay gave 610 pM (6 of 6 replicates; controls 4 of 18). With S25I+S62E [Ctrl] the result was 2.7 nM (6 of 6 replicates; controls 1 of 18). The variant N35M+H98F [Ctrl] showed 37 nM (4 of 6 replicates; controls 0 of 18). The variant S25W+Q27C+T59L [Ctrl] gave 33 nM (5 of 6 replicates; controls 0 of 18). The variant W56S+L100H [Ctrl] showed 15 nM (6 of 6 replicates; controls 1 of 18). The variant S25L+L30E+Y31M+W56N [GP_Gen] gave 580 pM (6 of 6 replicates; controls 0 of 18). With L30I+S62A [Ctrl] the result was 290 nM (3 of 6 replicates; controls 0 of 18). The variant S38N+W56E [Ctrl+GP_Gen] gave 1.2 nM (6 of 12 replicates; controls 0 of 36).

For S26Y+V29F+W56G+Q96N [GP_HC], the assay gave 12 nM (6 of 6 replicates; controls 1 of 18). The variant E32D+E61R [Ctrl] showed 110 nM (6 of 6 replicates; controls 2 of 18). The variant S25L+S26Q+S33D+W56N+E61L [GP_Gen] gave 440 pM (6 of 6 replicates; controls 4 of 18). For S25L+S26D+V29G+W56E [GP_Gen], the assay gave 750 pM (6 of 6 replicates; controls 0 of 18). With S25Y+T59R [Ctrl] the result was 470 nM (3 of 6 replicates; controls 0 of 18). With S25L+V29F+R34Q+K36W+W56N+T59K [GP_Gibbs] the result was 920 pM (6 of 6 replicates; controls 0 of 18). With S25L+V29W+L30P+W56N+E61M [GP_Gen] the result was 2.6 nM (6 of 6 replicates; controls 2 of 18). For T59M+S62Q+R99M [Ctrl], the assay gave 290 nM (3 of 6 replicates; controls 0 of 18).

With S25L+N37M+W56N+T59Q [GP_Gen] the result was 1.2 nM (6 of 6 replicates; controls 0 of 18). The variant S26L+V29H+W56H+S62Q [GP_HC] gave 17 nM (6 of 6 replicates; controls 0 of 18). With S25V+Q27E+V29N+W56E [GP_Gen] the result was 890 pM (6 of 6 replicates; controls 0 of 18). The variant S25L+Q27G+V29Q+W56E [GP_Gen] gave 440 pM (6 of 6 replicates; controls 3 of 18). With V29E+R34S+V39M+S62D [Ctrl] the result was 66 nM (3 of 6 replicates; controls 0 of 18). The variant N37R [Ctrl] gave 260 nM (2 of 6 replicates; controls 1 of 18).

A selection of 5 entries from above:

changes	group	Kd (apparent)	replicates with signal	empty controls
S25L+V29F+W56D	GP_Gen	720 pM	6 of 6	2 of 18
S25Q+S28E+Y31F+W56D+S62Q	GP_HC	610 pM	6 of 6	4 of 18
S25M+Y31M+S33G+K36D+W56E+S62D	GP_Gibbs	890 pM	6 of 6	0 of 18
S25L+Q27G+V29Q+W56E	GP_Gen	440 pM	6 of 6	3 of 18
S38N+W56E	Ctrl+GP_Gen	1.2 nM	6 of 12	0 of 36

As a blank, each scFv also met three strains without target: over all light chain designs, 4% of these pairings were detected, typically at 430 nM and seldom below 38 nM. The control count says in how many pairings with the empty strains this scFv gave a signal.
A sequence that the file lists under several names has all its replicates pooled.
Values of this round are not directly comparable with the first-round values of the same sequences.
The authors averaged sequences with at least three values out of six and counted those with two or fewer as poor binders.

Reference: Li et al. 2023, doi:10.1038/s41467-023-39022-2. File: FLAb, binding data.